Molecular target: Platelet rich plasma, PRP (Canis lupus familiaris, UniProt A0A8I3N5G5+A0A8I3PMU9)
Assay: Inhibition of platelet aggregation, PRP/ADP
Assay type: cell-based
Conditions: dog platelet rich plasma, 2 μM ADP, peptide added 3 min. prior to agonist; read-out: Antiaggregatory Activity IC50, μM PRP/ADP
Protocol: Blood was collected (citrated to prevent coagulation) from, naive, adult mongrel dogs. Platelet rich plasma, PRP, was prepared by centrifugation at 150×g for 10 min. at room temperature. Washed platelets were prepared by centrifuging PRP at 800×g for 10 min. The cell pellet thus obtained was washed twice in Tyrode's buffer (pH 6.5) without Ca^2+ and resuspended in Tyrode's buffer (pH 7.4) containing 1.8 mM Ca^2+ at […]. Peptides were added 3 min. prior to the agonist in all assays of platelet aggregation. Final agonist concentrations were 0.1 unit/ml thrombin and 2 μM ADP (Sigma). Aggregation was monitored in a Chrono-Log Lumi-Aggregometer. Light transmittance 5 min. after addition of the agonist was used to calculate percent aggregation according to the formula % aggregation=[(90-CR).div.(90-10)]×100, where CR is the chart reading, 90 is the baseline, and 10 is the PRP blank reading. IC50 's were determined by plotting [% inhibition of aggregation] vs. [concentration of peptide]. Peptides were assayed at 200 μM and diluted sequentially by a factor of 2 to establish a suitable dose response curve.

Sequences of proteins named here, by UniProt entry; tags and fusion partners are left off. Residues count along the entry.
UniProt A0A8I3N5G5, 1-1047: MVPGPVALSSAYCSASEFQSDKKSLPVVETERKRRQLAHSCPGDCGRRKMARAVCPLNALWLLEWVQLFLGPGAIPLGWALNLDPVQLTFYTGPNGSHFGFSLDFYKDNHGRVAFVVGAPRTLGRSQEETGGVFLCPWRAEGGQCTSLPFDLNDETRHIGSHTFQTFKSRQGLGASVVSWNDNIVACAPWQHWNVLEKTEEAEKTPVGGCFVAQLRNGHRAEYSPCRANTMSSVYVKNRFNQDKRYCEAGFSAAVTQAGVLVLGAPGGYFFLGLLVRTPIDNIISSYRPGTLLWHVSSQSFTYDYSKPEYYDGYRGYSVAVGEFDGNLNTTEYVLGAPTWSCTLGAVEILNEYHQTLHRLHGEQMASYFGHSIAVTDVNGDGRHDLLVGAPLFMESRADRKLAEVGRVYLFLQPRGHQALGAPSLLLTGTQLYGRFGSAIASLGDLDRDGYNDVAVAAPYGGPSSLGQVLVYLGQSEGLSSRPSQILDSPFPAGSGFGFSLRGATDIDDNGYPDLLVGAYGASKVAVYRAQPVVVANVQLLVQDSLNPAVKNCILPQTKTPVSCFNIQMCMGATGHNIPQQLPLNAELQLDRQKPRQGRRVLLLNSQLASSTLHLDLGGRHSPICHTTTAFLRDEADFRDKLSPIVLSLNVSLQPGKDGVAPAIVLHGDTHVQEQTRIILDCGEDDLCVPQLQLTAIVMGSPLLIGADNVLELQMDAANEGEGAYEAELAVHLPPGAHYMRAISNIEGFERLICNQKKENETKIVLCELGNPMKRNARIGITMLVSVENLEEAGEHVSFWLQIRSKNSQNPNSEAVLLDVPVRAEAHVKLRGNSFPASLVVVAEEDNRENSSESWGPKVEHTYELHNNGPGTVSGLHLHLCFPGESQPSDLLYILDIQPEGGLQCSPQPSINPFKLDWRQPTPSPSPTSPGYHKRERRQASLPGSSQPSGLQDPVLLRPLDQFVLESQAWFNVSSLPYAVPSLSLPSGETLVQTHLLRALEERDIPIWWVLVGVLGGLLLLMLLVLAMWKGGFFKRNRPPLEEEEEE
UniProt A0A8I3PMU9, 1-919: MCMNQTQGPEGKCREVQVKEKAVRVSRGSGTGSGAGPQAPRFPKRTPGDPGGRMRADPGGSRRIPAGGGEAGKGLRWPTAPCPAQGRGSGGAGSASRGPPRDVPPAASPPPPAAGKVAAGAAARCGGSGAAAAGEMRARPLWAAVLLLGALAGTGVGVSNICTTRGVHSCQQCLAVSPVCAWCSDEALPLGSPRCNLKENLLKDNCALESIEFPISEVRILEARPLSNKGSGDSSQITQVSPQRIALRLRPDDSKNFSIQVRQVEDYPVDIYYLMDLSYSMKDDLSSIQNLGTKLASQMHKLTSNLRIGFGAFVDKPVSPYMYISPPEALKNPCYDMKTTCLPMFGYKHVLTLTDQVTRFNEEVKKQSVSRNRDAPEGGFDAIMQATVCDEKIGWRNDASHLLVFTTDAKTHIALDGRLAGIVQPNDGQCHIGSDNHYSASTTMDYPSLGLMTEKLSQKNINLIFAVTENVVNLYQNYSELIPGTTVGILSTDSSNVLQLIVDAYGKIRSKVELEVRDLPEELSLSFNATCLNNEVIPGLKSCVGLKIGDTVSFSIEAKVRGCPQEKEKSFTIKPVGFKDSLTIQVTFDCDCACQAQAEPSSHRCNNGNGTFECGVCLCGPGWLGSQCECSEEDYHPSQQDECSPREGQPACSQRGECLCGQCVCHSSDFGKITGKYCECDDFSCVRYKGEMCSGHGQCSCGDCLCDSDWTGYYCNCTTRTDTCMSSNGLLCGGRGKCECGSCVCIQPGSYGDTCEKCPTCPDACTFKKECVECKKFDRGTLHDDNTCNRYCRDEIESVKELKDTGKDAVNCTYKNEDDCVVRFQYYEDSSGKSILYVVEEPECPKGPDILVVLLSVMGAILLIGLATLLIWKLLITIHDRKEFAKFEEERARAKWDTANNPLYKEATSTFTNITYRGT

N^α -Ac-Cyclo(S,S)Cys-MeArg-Gly-Asp-MeSer-Cys-NH2 [Example 6]
IC50: 77 µM
